Tests used:
adult rats [1] = experiment: Formalin test (licking and lifting) in adult rats; format: in vivo, rat; conditions: A85380 0.06 mg/kg 2 min prior to fentanyl 20 μg/kg over 400s iv
adult rats [2] = experiment: Thermal nociception (paw withdrawal latency, plantar test) in adult rats; format: in vivo, rat; conditions: A85380 0.06 mg/kg 2 min prior to fentanyl 20 μg/kg over 400s iv

c1cncc(OC[C@@H]2CCN2)c1 [A85380, 3-(2(s)-azetidinylmethoxy) pyridine]
fentanyl-induced analgesia, formalin test (adult rats [1]): further increased fentanyl-induced analgesia | fentanyl-induced analgesia, thermal test (adult rats [2]): further increased fentanyl-induced analgesia
